From patent publication US11186582B2, “Substituted [1,2,4]triazolo[1,5-a]pyrimidin-7-yl compounds as PDE2 inhibitors” (DART NEUROSCIENCE (CAYMAN) LTD., priority 2014, dated 2021) come the findings set out here.

Chains of the proteins cited; added tags and fusions are not shown. Residues count along the entry.
UniProt O00408, 2-941: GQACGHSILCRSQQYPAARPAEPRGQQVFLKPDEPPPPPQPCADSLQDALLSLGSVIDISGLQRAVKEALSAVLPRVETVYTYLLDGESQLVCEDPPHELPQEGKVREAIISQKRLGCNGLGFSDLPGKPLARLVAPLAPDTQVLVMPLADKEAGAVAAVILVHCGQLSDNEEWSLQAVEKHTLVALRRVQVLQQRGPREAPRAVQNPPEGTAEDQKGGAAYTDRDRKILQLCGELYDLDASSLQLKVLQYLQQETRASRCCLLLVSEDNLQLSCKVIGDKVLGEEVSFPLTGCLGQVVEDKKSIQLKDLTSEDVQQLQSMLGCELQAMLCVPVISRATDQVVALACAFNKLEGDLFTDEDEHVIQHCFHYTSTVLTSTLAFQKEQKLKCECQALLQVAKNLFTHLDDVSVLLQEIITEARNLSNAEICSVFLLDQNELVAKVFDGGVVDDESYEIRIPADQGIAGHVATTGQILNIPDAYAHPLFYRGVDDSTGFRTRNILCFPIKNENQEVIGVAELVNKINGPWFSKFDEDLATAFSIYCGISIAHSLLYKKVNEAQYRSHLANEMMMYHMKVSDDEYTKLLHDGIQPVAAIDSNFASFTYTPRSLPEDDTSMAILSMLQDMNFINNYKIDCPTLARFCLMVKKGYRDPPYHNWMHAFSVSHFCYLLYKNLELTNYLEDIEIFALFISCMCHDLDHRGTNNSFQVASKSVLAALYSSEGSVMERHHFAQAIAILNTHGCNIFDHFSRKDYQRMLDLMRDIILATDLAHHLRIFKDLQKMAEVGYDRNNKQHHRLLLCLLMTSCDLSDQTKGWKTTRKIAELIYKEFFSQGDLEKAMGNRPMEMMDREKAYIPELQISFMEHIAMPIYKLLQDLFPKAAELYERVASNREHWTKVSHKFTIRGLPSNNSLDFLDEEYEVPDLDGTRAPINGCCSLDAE

A value given as a limit tells only on which side of the number the result lay.

The target of the first experiment is FLAG-tagged PDE2A1 (amino acids 2-941) (Homo sapiens (Human), UniProt O00408). Put plainly: IMAP TR-FRET PDE2A phosphodiesterase enzymatic assay.
Settings: not given
(In general: Time-resolved FRET reads energy transfer from a long-lived donor to a nearby acceptor.)
The term IC50 denotes the concentration at which inhibition is half-maximal. Higher therefore signals a need for much substance. `Cc1cc(C2CCCN(Cc3ccc(OC(F)(F)F)cc3)C2)n2ncnc2n1` (stereo not drawn) [Example 156, 3-{5-Methyl-[1,2,4]triazolo[1,5-a]pyrimidin-7-yl}-1-{[4-(trifluoromethoxy)phenyl]methyl}piperidine] came in with a concentration for half-maximal inhibition (IC50) of 1000 to 10000 nM.

`Cc1cc(C2CCCN(Cc3ccccc3OC(F)(F)F)C2)n2ncnc2n1` (stereo not drawn) [Example 157, 3-{5-Methyl-[1,2,4]triazolo[1,5-a]pyrimidin-7-yl}-1-{[2-(trifluoromethoxy)phenyl]methyl}piperidine] showed a concentration for half-maximal inhibition (IC50) of 1000 to 10000 nM.

As for `COc1cc(C(F)(F)F)ccc1CN1CCCC(c2cc(C)nc3ncnn23)C1` (stereo not drawn) [Example 158, 1-{[2-Methoxy-4-(trifluoromethyl)phenyl]methyl}-3-{5-methyl-[1,2,4]triazolo[1,5-a]pyrimidin-7-yl}piperidine], the IC50 was 1000 to 10000 nM.

The molecule `Cc1cc(C2CCCN(Cc3ccc4cccnc4c3)C2)n2ncnc2n1` (stereo not drawn) [Example 159, 7-[(3-{5-Methyl-[1,2,4]triazolo[1,5-a]pyrimidin-7-yl}piperidin-1-yl)methyl]quinoline] registered an IC50 of 100 to 1000 nM.

In the case of `Cc1cc(C2CCCN(Cc3ccc(-c4cccs4)cc3)C2)n2ncnc2n1` (stereo not drawn) [Example 160, 3-{5-Methyl-[1,2,4]triazolo[1,5-a]pyrimidin-7-yl}-1-{[4-(thiophen-2-yl)phenyl]methyl}piperidine], the IC50 was in the range of 100 to 1000 nM.

As for `Cc1cc(C2CCCN(Cc3ccc(C)c(F)c3)C2)n2ncnc2n1` (stereo not drawn) [Example 161, 1-[(3-Fluoro-4-methylphenyl)methyl]-3-{5-methyl-[1,2,4]triazolo[1,5-a]pyrimidin-7-yl}piperidine], the IC50 fell in the range of 100 to 1000 nM.

Molecule `Cc1cc(C2CCCN(Cc3ccc(F)cc3Cl)C2)n2ncnc2n1` (stereo not drawn) [Example 162, 1-[(2-Chloro-4-fluorophenyl)methyl]-3-{5-methyl-[1,2,4]triazolo[1,5-a]pyrimidin-7-yl}piperidine] returned an IC50 of 1000 to 10000 nM.

Take `Cc1cc(C2CCCN(Cc3ccc(C(F)(F)F)cc3C)C2)n2ncnc2n1` (stereo not drawn) [Example 163, 1-{[2-Methyl-4-(trifluoromethyl)phenyl]methyl}-3-{5-methyl-[1,2,4]triazolo[1,5-a]pyrimidin-7-yl}piperidine]: the IC50 was in the range of 1000 to 10000 nM.

`Cc1cc(C2CCCN(Cc3ccc(Cl)c(C(F)(F)F)c3)C2)n2ncnc2n1` (stereo not drawn) [Example 164, 1-{[4-Chloro-3-(trifluoromethyl)phenyl]methyl}-3-{5-methyl-[1,2,4]triazolo[1,5-a]pyrimidin-7-yl}piperidine] returned a concentration for half-maximal inhibition (IC50) of 1000 to 10000 nM.

Regarding `Cc1cc(C2CCCN(Cc3ccc(Cl)c(C)c3)C2)n2ncnc2n1` (stereo not drawn) [Example 165, 1-[(4-Chloro-3-methylphenyl)methyl]-3-{5-methyl-[1,2,4]triazolo[1,5-a]pyrimidin-7-yl}piperidine], the half-inhibitory concentration (IC50) is 100 to 1000 nM.

`Cc1cc(C2CCCN(Cc3ccc(Cl)c(Cl)c3)C2)n2ncnc2n1` (stereo not drawn) [Example 166, 1-[(3,4-Dichlorophenyl)methyl]-3-{5-methyl-[1,2,4]triazolo[1,5-a]pyrimidin-7-yl}piperidine] registered an IC50 of 100 to 1000 nM.

As for `COc1cc(CN2CCCC(c3cc(C)nc4ncnn34)C2)ccc1Cl` (stereo not drawn) [Example 167, 1-[(4-Chloro-3-methoxyphenyl)methyl]-3-{5-methyl-[1,2,4]triazolo[1,5-a]pyrimidin-7-yl}piperidine], the half-inhibitory concentration (IC50) was in the range of 1000 to 10000 nM.

As for `Cc1cc(C2CCCN(Cc3ccc(Cl)c(Br)c3)C2)n2ncnc2n1` (stereo not drawn) [Example 168, 1-[(3-Bromo-4-chlorophenyl)methyl]-3-{5-methyl-[1,2,4]triazolo[1,5-a]pyrimidin-7-yl}piperidine], the IC50 lay in the range of 100 to 1000 nM.

`Cc1cc(C2CCCN(Cc3ccc(C)c(Br)c3)C2)n2ncnc2n1` (stereo not drawn) [Example 169, 1-[(3-Bromo-4-methylphenyl)methyl]-3-{5-methyl-[1,2,4]triazolo[1,5-a]pyrimidin-7-yl}piperidine]: the IC50 lay in the range of 100 to 1000 nM.

Consider `COc1ccc(CN2CCCC(c3cc(C)nc4ncnn34)C2)cc1Br` (stereo not drawn) [Example 170, 1-[(3-Bromo-4-methoxyphenyl)methyl]-3-{5-methyl-[1,2,4]triazolo[1,5-a]pyrimidin-7-yl}piperidine], for which the IC50 fell in the range of 100 to 1000 nM.

Consider `Cc1cc(C2CCCN(Cc3ccc(F)c(Br)c3)C2)n2ncnc2n1` (stereo not drawn) [Example 171, 1-[(3-Bromo-4-fluorophenyl)methyl]-3-{5-methyl-[1,2,4]triazolo[1,5-a]pyrimidin-7-yl}piperidine], for which the half-inhibitory concentration (IC50) lay within 1000 to 10000 nM.

Molecule `Cc1cc(C2CCCN(Cc3ccc(Br)c(C)c3)C2)n2ncnc2n1` (stereo not drawn) [Example 172, 1-[(4-Bromo-3-methylphenyl)methyl]-3-{5-methyl-[1,2,4]triazolo[1,5-a]pyrimidin-7-yl}piperidine] displayed an IC50 of 100 to 1000 nM.

Turning to `Cc1cc(C2CCCN(Cc3ccc(I)cc3)C2)n2ncnc2n1` (stereo not drawn) [Example 173, 1-[(4-Iodophenyl)methyl]-3-{5-methyl-[1,2,4]triazolo[1,5-a]pyrimidin-7-yl}piperidine], the IC50 was 100 to 1000 nM.

On to `Cc1cc(C2CCCN(Cc3cccc(C#N)c3)C2)n2ncnc2n1` (stereo not drawn) [Example 175, 3-[(3-{5-Methyl-[1,2,4]triazolo[1,5-a]pyrimidin-7-yl}piperidin-1-yl)methyl]benzonitrile], for which the IC50 lay in the range of 1000 to 10000 nM.

Take `Cc1cc(C2CCCN(Cc3ccc(F)c(C#N)c3)C2)n2ncnc2n1` (stereo not drawn) [Example 176, 2-Fluoro-5-[(3-{5-methyl-[1,2,4]triazolo[1,5-a]pyrimidin-7-yl}piperidin-1-yl)methyl]benzonitrile]: the half-maximal inhibitory concentration (IC50) lay in the range of 1000 to 10000 nM.

`Cc1cc(C2CCCN(Cc3ccc(C#N)cc3)C2)n2ncnc2n1` (stereo not drawn) [Example 177, 4-[(3-{5-Methyl-[1,2,4]triazolo[1,5-a]pyrimidin-7-yl}piperidin-1-yl)methyl]benzonitrile] registered an IC50 of 1000 to 10000 nM.

`Cc1cc(C2CCCN(Cc3ccc(C)c(C#N)c3)C2)n2ncnc2n1` (stereo not drawn) [Example 180, 2-Methyl-5-[(3-{5-methyl-[1,2,4]triazolo[1,5-a]pyrimidin-7-yl}piperidin-1-yl)methyl]benzonitrile] returned an IC50 of 100 to 1000 nM.

With `Cc1cc(C2CCCN(Cc3cc(F)cc(C(F)(F)F)c3)C2)n2ncnc2n1` (stereo not drawn) [Example 181, 1-{[3-Fluoro-5-(trifluoromethyl)phenyl]methyl}-3-{5-methyl-[1,2,4]triazolo[1,5-a]pyrimidin-7-yl}piperidine], the IC50 was in the range of 100 to 1000 nM.

`Cc1cc(C2CCCN(Cc3ccc(C#N)c(F)c3)C2)n2ncnc2n1` (stereo not drawn) [Example 183, 2-Fluoro-4-[(3-{5-methyl-[1,2,4]triazolo[1,5-a]pyrimidin-7-yl}piperidin-1-yl)methyl]benzonitrile] yielded an IC50 of 100 to 1000 nM.

Molecule `Cc1cc(C2CCCN(Cc3cc(F)cc(F)c3)C2)n2ncnc2n1` (stereo not drawn) [Example 185, 1-[(3,5-Difluorophenyl)methyl]-3-{5-methyl-[1,2,4]triazolo[1,5-a]pyrimidin-7-yl}piperidine] registered a 50% inhibitory concentration (IC50) of 100 to 1000 nM.

`Cc1cc(C2CCCN(Cc3cc(F)c(F)c(F)c3)C2)n2ncnc2n1` (stereo not drawn) [Example 187, 3-{5-Methyl-[1,2,4]triazolo[1,5-a]pyrimidin-7-yl}-1-[(3,4,5-trifluorophenyl)methyl]piperidine] returned an IC50 of 100 to 1000 nM.

As for `Cc1cc(C2CCCN(Cc3ccc(OC(F)(F)F)c(F)c3)C2)n2ncnc2n1` (stereo not drawn) [Example 188, 1-{[3-Fluoro-4-(trifluoromethoxy)phenyl]methyl}-3-{5-methyl-[1,2,4]triazolo[1,5-a]pyrimidin-7-yl}piperidine], the IC50 lay in the range of 100 to 1000 nM.

Take `Cc1cc(C2CCCN(Cc3ccc(-n4cccn4)c(F)c3)C2)n2ncnc2n1` (stereo not drawn) [Example 189, 1-{[3-Fluoro-4-(1H-pyrazol-1-yl)phenyl]methyl}-3-{5-methyl-[1,2,4]triazolo[1,5-a]pyrimidin-7-yl}piperidine]: the IC50 is 100 to 1000 nM.

On to `Cc1cc([C@H]2CCCN(Cc3cc(F)c(F)c(F)c3)C2)n2ncnc2n1` [Example 191, (3S)-3-{5-Methyl-[1,2,4]triazolo[1,5-a]pyrimidin-7-yl}-1-[(3,4,5-trifluorophenyl)methyl]piperidine], for which the IC50 lay within 100 to 1000 nM.

`Cc1cc(C2CCCN(Cc3cncc(F)c3)C2)n2ncnc2n1` (stereo not drawn) [Example 192, 3-Fluoro-5-[(3-{5-methyl-[1,2,4]triazolo[1,5-a]pyrimidin-7-yl}piperidin-1-yl)methyl]pyridine] gave an IC50 of 1000 to 10000 nM.

With `Cc1cc(C2CCCN(Cc3cnc(Br)s3)C2)n2ncnc2n1` (stereo not drawn) [Example 193, 1-[(2-Bromo-1,3-thiazol-5-yl)methyl]-3-{5-methyl-[1,2,4]triazolo[1,5-a]pyrimidin-7-yl}piperidine], the IC50 fell in the range of 100 to 1000 nM.

The same experiment, now with this note: IMAP TR-FRET, 200 nM FAM-cAMP substrate, 11-point half-log dose-response.
As to `Cc1cc(C2CCCN(Cc3ccc(C(F)(F)F)c(F)c3)C2)n2ncnc2n1` (stereo not drawn) [Example 178, 1-{[3-Fluoro-4-(trifluoromethyl)phenyl]methyl}-3-{5-methyl-[1,2,4]triazolo[1,5-a]pyrimidin-7-yl}piperidine], the “PDE2 (pIC50)” value was greater than 7.

For `Cc1cc([C@H]2CCCN(Cc3ccc(C(F)(F)F)c(F)c3)C2)n2ncnc2n1` [Example 179, (3S)-1-{[3-Fluoro-4-(trifluoromethyl)phenyl]methyl}-3-{5-methyl-[1,2,4]triazolo[1,5-a]pyrimidin-7-yl}piperidine], the “PDE2 (pIC50)” value is greater than 7.

As to `Cc1cc(C2CCCN(Cc3cc(F)c(Cl)c(F)c3)C2)n2ncnc2n1` (stereo not drawn) [Example 182, 1-[(4-Chloro-3,5-difluorophenyl)methyl]-3-{5-methyl-[1,2,4]triazolo[1,5-a]pyrimidin-7-yl}piperidine], the “PDE2 (pIC50)” value is given as greater than 7.

On to `Cc1cc([C@@H]2CCCN(Cc3cc(F)c(Cl)c(F)c3)C2)n2ncnc2n1` [Example 184, (3R)-1-[(4-Chloro-3,5-difluorophenyl)methyl]-3-{5-methyl-[1,2,4]triazolo[1,5-a]pyrimidin-7-yl}piperidine], for which the “PDE2 (pIC50)” value is given as greater than 7.

As to `Cc1cc([C@H]2CCCN(Cc3cc(F)c(C(F)(F)F)c(F)c3)C2)n2ncnc2n1` [Example 190, (3S)-1-{[3,5-Difluoro-4-(trifluoromethyl)phenyl]methyl}-3-{5-methyl-[1,2,4]triazolo[1,5-a]pyrimidin-7-yl}piperidine], the “PDE2 (pIC50)” value is greater than 7.
